Data: patent US20260166170A1, “ANTIBODY DRUG CONJUGATE COMPRISING NMT INHIBITOR AND ITS USE” (MyricX Pharma Limited, priority 2022, published 2026)

Key:
[1] = system: eGFP+MCF7 cells co-cultured with HER2 positive BT474 cells; test: In vitro bystander effect, co-culture with BT474; type: cell-based; settings: 0.05-12.5 nM, Day 9
Description: HER2 negative MCF7 cells were stably transduced with pHIV eGFP (Addgene plasmid 21373) and sorted by flow cytometry to obtain a cell population that was 100% GFP positive (Green Fluorescent Protein). After two passages, eGFP positive MCF7 cells were plated in a 1:1 ratio with Wild Type MCF7 cells (1000 cells each) or with HER2 positive BT474 cells in 96 well plates. […] Cells were imaged every four hours for ten days in the IncuCyte S3. Images for % green (eGFP+MCF7) were collected and analysed using the IncuCyte software 2022A. Data are presented as % green area (μm^2) as a measure of eGFP+MCF7 confluence on Day 9.

[2] = system: gastric cancer organoid GA6866B; test: Gastric cancer organoid CTG viability assay; type: cell-based; parameters: AUC (area under curve): unit not given beside the values; settings: 5 or 6 days; for IC50: absolute IC50
Description: (§1) • Day−1: Patient derived gastric cancer organoids (PDXOs) are sheared to uniform sizes and the required number of organoids are combined 1:1 with 50% Matrigel to produce the right size of the organoids to perform the screen. • Day 0: Organoid seeding • 1. Collect organoids from each well by adding 20 μl 100× Dispase solution to each well from a 6-well plate, which contains 2 ml of organoid medium. • 2. Put the plates back in the incubator, 37° C. for 30 min. • 3. Collect organoids from all wells and pipet through a pre-wet 100 μm filter into a 50 ml plastic tube. • 4. Once all wells have been filtered over 100 μm filters, filter the flow though over a pre-wet 20 μm filter. • 5. Invert the 20 μm filter and recover the organoids in a new 50 ml tube. • 6. Collect and resuspend the organoids in the corresponding culture media. Count the organoids to get the concentration. • 7. Adjust cell concentration with culture medium to the proper concentration. • 8. Add Matrigel to a final concentration of 5% v/v and keep the organoids suspension on ice. • 9. Add 40 μL cell suspensions to 384-well plate by Multidrop dispenser with corresponding culture medium at the below seeding density:
(§2) • 10. Place screening plates back into the incubator before adding compounds and day 0 reading. Two duplicate plates were set up. One is for day 0 reading (TO) and the other for reading at the end point. • Day 0: Compounds treatment and Day 0 baseline CTG (cell titre glo) reading • 11. Add test articles according to the drug dilution scheme and plate map by Tecan D300e • 12. Place screening plates back into the incubator. • 13. For day 0 reading plate, add 40 μL of CTG 3D per well and read luminescent signal on Envision plate reader. • Day 6: Endpoint CTG reading. • 1. Read assay plates for luminescent CTG signal at the end of the assays: add 40 μL of CTG 3D per well by Multidrop dispenser, mix the contents for 5 min on the plate shaker, and incubate the plates for 30 min at room temperature in dark. Read luminescent signal on Envision plate reader.
(§3) In order to calculate absolute IC50, a concentration-response curve was fitted using nonlinear regression model with a sigmoidal dose response with variable slope. The formula for calculating surviving rate is shown below and the absolute IC50 were calculated according to the dose-response curve generated by GraphPad Prism.

[3] = system: gastric cancer organoid GA2434B; test: Gastric cancer organoid CTG viability assay; type: cell-based; parameters: AUC (area under curve): unit not given beside the values; settings: 5 or 6 days; for IC50: absolute IC50
Description: as §1, §2, §3

[4] = system: gastric cancer organoid GA3102B; test: Gastric cancer organoid CTG viability assay; type: cell-based; parameters: AUC (area under curve): unit not given beside the values; settings: 5 or 6 days; for IC50: absolute IC50
Description: as §1, §2, §3

[5] = system: gastric cancer organoid GA6815B; test: Gastric cancer organoid CTG viability assay; type: cell-based; parameters: AUC (area under curve): unit not given beside the values; settings: 5 or 6 days; for IC50: absolute IC50
Description: as §1, §2, §3

[6] = system: gastric cancer organoid GA6894B; test: Gastric cancer organoid CTG viability assay; type: cell-based; parameters: AUC (area under curve): unit not given beside the values; settings: 5 or 6 days; for IC50: absolute IC50
Description: as §1, §2, §3

[7] = system: gastric cancer organoid GA6877B; test: Gastric cancer organoid CTG viability assay; type: cell-based; parameters: AUC (area under curve): unit not given beside the values; settings: 5 or 6 days; for IC50: absolute IC50
Description: as §1, §2, §3

[8] = system: HER2 negative breast cancer cell line, MCF7; test: In vitro cytotoxicity, IncuCyte Sytox Green; type: cell-based; settings: concentration up to 50 nM; imaged for ten days
Description: Cells were plated in 96 well plates at 10% confluency (2000 for MCF7). […] Plates were imaged every four hours for ten days in the IncuCyte S3. Images for % phase (confluence) and green (Sytox Green) were collected and analysed using the IncuCyte software 2022A. Data are presented as green area normalised to phase area (μm^2) over time whilst cells are in log phase proliferation.
Trastuzumab was conjugated to NMT inhibitor 1 (ADC Example 8) and tested for its cytotoxic activity against a HER2 negative breast cancer cell line, MCF7 in an in vitro assay. Cells were plated in 96 well plates at 10% confluency (2000 for MCF7). The following day cells were treated with ADC Example 8 at 50 nM, 3.13 nM, and 0.2 nM and controls in 250 nM Sytox Green containing medium. Plates were imaged every four hours for ten days in the IncuCyte S3. Images for % phase (confluence) and green (Sytox Green) were collected and analysed using the IncuCyte software 2022A. Data are presented as green area normalised to phase area (μm^2) over time whilst cells are in log phase proliferation.

[9] = system: NCI-N87 human gastric xenograft; test: Gastric cancer xenograft model; type: in vivo, female BALB/c nude mice; settings: for tumour volumes compared to vehicle alone: all concentrations tested (2.5 mg/kg or 5 mg/kg; Isotype control 5 mg/Kg); for animals with significant body weight loss (>10%): regained by next measurement
Description: In this study, 143 mice were inoculated subcutaneously in the right flank region with 1×10^7 viable NCI-N87 tumour cells resuspended in 0.1 mL of PBS mixed with Matrigel (1:1) for tumour development. 102 mice were assigned to 9 treatment groups on study day 0 when tumour volumes averaged 168.08 mm^3. […] The study was terminated on study Day 28.
Tumour volumes in mice were measured three times per week and tumour volume was calculated using the formula 0.5 (L×W2). The mean tumour volumes (+SEM) for each study group at each measurement are shown in FIG. 5 and FIG. 6. • ΔTGI %=((mean(C)−mean(C0))−(mean(T)−mean(T0)))/(mean(C)−mean(C0))×100% where T is the mean tumour volume of the treated group on the measurement day and TO is the mean tumour volume on Study Day 0. C is the mean tumour volume of the control Group 1 mice on the measurement day and C0 is the mean tumour volume on Study Day 0.
During the study, body weights were measured three times weekly for all animals. Animals were given Diet Gel for the entire duration on the study. The mean body weights for each group during the dosing phase are presented in FIG. 7A (2.5 mpk study) and FIG. 7B (5 mpk study).

trastuzumab deruxtecan
bystander killing of eGFP+MCF7 cells [1]: least effective | AUC (area under curve) [2]: 192.9042 | Max_Inhibition (%) [2]: 85.3% | IC50 [2]: 0.4 nM | AUC (area under curve) [3]: 374.6871 | Max_Inhibition (%) [3]: 21.96% | IC50 [3]: > 50 nM | AUC (area under curve) [4]: 215.0035 | Max_Inhibition (%) [4]: 90.24% | IC50 [4]: 0.7 nM | AUC (area under curve) [5]: 246.891 | Max_Inhibition (%) [5]: 63.4% | IC50 [5]: 0.4 nM | AUC (area under curve) [6]: 320.9681 | Max_Inhibition (%) [6]: 44.79% | IC50 [6]: > 50 nM | AUC (area under curve) [7]: 196.3687 | Max_Inhibition (%) [7]: 80.47% | IC50 [7]: 0.4 nM | cell killing of HER2 negative MCF7 cells [8]: unable to induce cell killing | tumour volumes compared to vehicle alone [9]: significant decrease

trastuzumab: humanized anti-HER2 monoclonal antibody
bystander killing of eGFP+MCF7 cells [1]: neither induced any bystander killing | AUC (area under curve) [2]: 304.9903 | Max_Inhibition (%) [2]: 62.62% | IC50 [2]: 7.3 nM | AUC (area under curve) [3]: 368.0264 | Max_Inhibition (%) [3]: 27.95% | IC50 [3]: > 50 nM | AUC (area under curve) [4]: 362.8386 | Max_Inhibition (%) [4]: 13.75% | IC50 [4]: > 50 nM | AUC (area under curve) [5]: 284.7039 | Max_Inhibition (%) [5]: 64.47% | IC50 [5]: 1.9 nM | AUC (area under curve) [6]: 338.0717 | Max_Inhibition (%) [6]: 28.1% | IC50 [6]: > 50 nM | AUC (area under curve) [7]: 328.7294 | Max_Inhibition (%) [7]: 40.47% | IC50 [7]: > 50 nM | cell killing of HER2 negative MCF7 cells [8]: unable to induce cell killing | TGI study day 28 ([9]; 2.5 mg/Kg IV QW × 2 weeks): 123.08% | animals with significant body weight loss (>10%) ([9]; 2.5 mg/Kg): one animal | TGI study day 28 ([9]; 5 mg/Kg IV QW × 2 weeks): 167.70% | animals with significant body weight loss (>10%) ([9]; 5 mg/Kg): one animal | tumour volumes compared to vehicle alone [9]: significant decrease
